This series concerns A549 xenograft tumors. The settings on record: 5 mg/kg i.v. The method, then: To evaluate the anti-tumor effect of complex 3 in vivo, an xenografts nude mice model of A549 cancer cells was performed. […] At the end of treatments, the tumor weight was measured to detect the antitumor activity of these measured groups. […] Because platinum-based drugs are well known for their toxic effects on the mean bodyweights of treated animals, the toxicity of complex 3 in the body weights of mice was assayed. […] The mice treated with the tested complex 3 were selected for histological analyses.
Thirty-five nude mice (BALB/c) with body weight range from 18–22 g, were supplied by Shanghai Laboratory Animal Center, China Academy of Sciences. […] The tumor growth was monitored by measuring the perpendicular diameter of the tumor using calipers every two days and calculated according to the formula: […]
Growth curves were plotted using the average tumor volume within each experimental group at the set time points. The whole group of mice was sacrificed after the last treatment, then tumor weight was evaluated as the antitumor activity of the corresponding groups, and the kidneys, livers and tumors were excised for immunohistochemistry analysis. The body weight and physical state of the mice were measured simultaneously as an indicator of systemic toxicity.

For the compound `O=C1[O][Pt]2([NH][C@@H]3CCCC[C@H]3[NH]2)[O]C1=O` [Oxaliplatin, oxaliplatin, reference compound], the “bodyweights of mice during treatment” value is on record as “continuous decrease of bodyweights”.

The values above are taken from article PMC5458179, “Oxidative DNA double strand breaks and autophagy in the antitumor effect of sterically hindered platinum(II) complexes in NSCLCs” (Oncotarget, 2017).
